Read-outs that look alike come from different tables or passages of the source.

The values that follow come from patent US8097624B2, “Cycloalkyl derivatives of 3-hydroxy-4-pyridinones” (Apotex Inc., priority 2006, dated 2012).

A short description of data set [1]: Redox potentials of iron complexes by cyclic voltammetry. The following applies: glassy carbon working electrode, 2.0 mM, pH 7.4. Type of data set: physicochemical.
The conditions of data set [2]: values from Bioanalytical Systems Inc. (BAS), platinum working electrode; cited from earlier work.

Potassium ferricyanide (III) registered a ΔEp in data set [1] of 85 mV. For the same substance, in data set [1] (vs Ag/AgCl), the E1/2 was 240 mV, the “Ep^ox” value turned out to be 282 mV and the “Ep^red” value stood at 197 mV. In data set [2], the E1/2 was 272 mV, the “Ep^ox” value is listed as 306 mV, the “Ep^red” value is recorded as 237 mV and the ΔEp is 69 mV.
